Measurements reported in ChEMBL document CHEMBL5500395 (J Med Chem, 2024).

The chains behind the UniProt entries cited, without tags or fusion partners.
UniProt P08913, whole entry: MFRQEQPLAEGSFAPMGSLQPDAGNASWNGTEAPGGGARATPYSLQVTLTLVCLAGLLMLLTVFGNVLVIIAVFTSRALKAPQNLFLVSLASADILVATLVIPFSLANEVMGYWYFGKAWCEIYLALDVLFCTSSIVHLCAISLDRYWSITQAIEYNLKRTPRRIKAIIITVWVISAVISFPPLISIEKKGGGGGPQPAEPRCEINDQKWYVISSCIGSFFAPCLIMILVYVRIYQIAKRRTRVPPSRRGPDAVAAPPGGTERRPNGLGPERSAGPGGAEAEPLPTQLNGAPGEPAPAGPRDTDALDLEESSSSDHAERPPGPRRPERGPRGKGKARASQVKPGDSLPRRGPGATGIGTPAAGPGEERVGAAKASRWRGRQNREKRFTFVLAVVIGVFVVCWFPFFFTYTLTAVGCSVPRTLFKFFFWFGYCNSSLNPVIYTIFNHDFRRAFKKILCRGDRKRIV

The molecules below were run against Alpha-2A adrenergic receptor (Homo sapiens, UniProt P08913) (assay: biochemical).
Work on `CCOC(=O)[C@@H]1[C@H]2C[C@H]3c4[nH]c5ccccc5c4CCN3C[C@@H]2CC[C@@H]1O` yielded an EC50 of 11 nM. Work on `O=C(OC[C@@H]1CCN1)[C@@H]1[C@H]2C[C@H]3c4[nH]c5ccccc5c4CCN3C[C@@H]2CC[C@@H]1O` yielded an EC50 of 55 nM. `O=C(O[C@@H]1CCNC1)[C@@H]1[C@H]2C[C@H]3c4[nH]c5ccccc5c4CCN3C[C@@H]2CC[C@@H]1O` was tested, and the EC50 was 26 nM. With `CC(C)(C)OC(=O)[C@@H]1[C@H]2C[C@H]3c4[nH]c5ccccc5c4CCN3C[C@@H]2CC[C@@H]1O` the EC50 was 83 nM. Molecule `O=C(O[C@H]1CCNC1)[C@@H]1[C@H]2C[C@H]3c4[nH]c5ccccc5c4CCN3C[C@@H]2CC[C@@H]1O` has an EC50 of 20 nM. `O=C(OC[C@H]1CCNC1)[C@@H]1[C@H]2C[C@H]3c4[nH]c5ccccc5c4CCN3C[C@@H]2CC[C@@H]1O` showed an EC50 of 15 nM. `CNCCOC(=O)[C@@H]1[C@H]2C[C@H]3c4[nH]c5ccccc5c4CCN3C[C@@H]2CC[C@@H]1O` was tested, and the EC50 was 48 nM. Work on `O=C(OCC1CNC1)[C@@H]1[C@H]2C[C@H]3c4[nH]c5ccccc5c4CCN3C[C@@H]2CC[C@@H]1O` yielded an EC50 of 10 nM. `CC(C)OC(=O)[C@@H]1[C@H]2C[C@H]3c4[nH]c5ccccc5c4CCN3C[C@@H]2CC[C@@H]1O` showed an EC50 of 48 nM. In the case of `O=C(OC1CNC1)[C@@H]1[C@H]2C[C@H]3c4[nH]c5ccccc5c4CCN3C[C@@H]2CC[C@@H]1O`, the EC50 is reported as 17 nM. Molecule `O=C(OC[C@@H]1CCNC1)[C@@H]1[C@H]2C[C@H]3c4[nH]c5ccccc5c4CCN3C[C@@H]2CC[C@@H]1O` has an EC50 of 16 nM. `CC(C)CCOC(=O)[C@@H]1[C@H]2C[C@H]3c4[nH]c5ccccc5c4CCN3C[C@@H]2CC[C@@H]1O` gave an EC50 of 21 nM. In the case of `O=C(OC1CCCNC1)[C@@H]1[C@H]2C[C@H]3c4[nH]c5ccccc5c4CCN3C[C@@H]2CC[C@@H]1O` (some centres undefined), the EC50 is reported as 73 nM. `O=C(OC[C@H]1CCN1)[C@@H]1[C@H]2C[C@H]3c4[nH]c5ccccc5c4CCN3C[C@@H]2CC[C@@H]1O` was tested, and the EC50 was 13 nM.
